The source of these data is patent US20240398943A1, “METHODS OF TREATING CANCER AND THE PHARMACEUTICAL COMPOSITIONS THEREOF” (SYSTIMMUNE, INC., priority 2021, published 2024).

The test system of data set [1] is HCC827_936 cells tumor xenograft. The data set can be described thus: SI-B001 and Cis/Pem combination therapy in HCC827_936 xenograft model (Example 5). Format: in vivo. Conditions: for T/C / TGI / Tumor volume x ± SD: Day 24; for mice died before D24: 5 mice per group. The source says: HCC827_936 cells express EGFR mutations of exon19del and exon20ins.
The test system of data set [2] is FaDu cells (wild type EGFR) tumor xenograft. On the procedure:
(§1) Xenotransplantation of human cancer cells into immunocompromised mice is a gold-standard model used for pre-clinical oncology research and testing of anti-cancer therapies. In general, human cancer cell lines are injected below the skin of the mouse. […] The primary outcome parameter is growth inhibition by the drug, for which tumor size is measured over time, often externally with calipers. After the tumor reaches a certain size, the mice are euthanized. Drug effects on the tumor are further analyzed on a tissue level or molecular level (e.g., DNA, proteins). The primary outcome parameter of a xenograft model for testing drug efficacy is the growth of the treated tumor versus control. Typically, xenograft tumors grow from 100 mm^3 (6 mm diameter) to 1000 mm^3 (12 mm diameter) in several weeks. The growth rate often declines with larger tumor sizes, as opposed to exponential growth in (2D) in vitro experiments. Tumor growth inhibition varies per drug and implanted cell line. The effect of therapeutics can be directly on tumor cells, or indirectly via the microenvironment such as the inhibition of vessel formation, or both.
(§2) The experiment animals used were of Balb/c-nu mouse, female, ages 5^˜7 weeks, weight 17^˜21 g.
To establish xenograft model of HNSCC, human head and neck cancer cells, FaDu cells, were transplanted into the mice to establish the xenograft model of HNSCC. FaDu is a cell line isolated from a hypopharyngeal tumor of a squamous cell carcinoma patient, which expresses wild type EGFR (ATCC).
(§3) Each of the three human cancer cell lines was cultured in RPMI1640 medium containing 10% fetal bovine serum, collected in the exponential growth phase, resuspended in PBS to a suitable concentration, and used for subcutaneous tumor implantation in mice.
When the tumor grew to an average volume of about 230 mm3, randomly grouped according to tumor size and mouse weight to establish human head and neck squamous cell carcinoma cells FaDu xenograft model.
(§4) Tumor volume (mm3) V=½×(a×b)^2, where a represents the long diameter and b represents the short diameter. Relative tumor volume (RTV), RTV=Vt/V0, where V0 is the tumor volume at time 0 and Vt is the tumor volume after treatment at time t. The T/C value (%) is an indicator of the tumor response to treatment and is the most used evaluation indicator. T/C %=TRTV/CRTV×100%, where TRTV is treatment group average RTV and CRTV is control group average RTV. The T/C value (%) can also be calculated as T/C %=TTW/CTW×100%, where TTW is the average tumor weight at the end of the treatment group experiment and CTW is the average tumor weight at the end of the control group experiment.

Data set [3] relates to HCC827_936 cells (EGFR exon19del and exon20ins) tumor xenograft. To be noted: for T/C / TGI / Tumor volume x ± SD: Day 31; for mice died before D31: 5 mice per group. Here is the method: as §1, §2
To establish xenograft model of NSCLC, two lung cancer cell lines expressing were used. Human lung adenocarcinoma cell line HCC827_936 was clonally derived from HCC827 cell line isolated from NSCLC tissue of a patient (ATCC). HCC827_936 cells express EGFR mutations of exon19del and exon20ins. The other lung cancer cell line, NCI-H1975 cells (ATCC), express the EGFR L858R/T790M double mutation.
as §3
When the tumor grew to an average volume of about 163 mm^3, randomly grouped according to tumor size and mouse weight to establish HCC827_936 xenograft model.
as §4, with “(mm^3)” for “(mm3)”

Setting [4] is: SI-B001 9 mg/kg/wk i.v. QW, 9 mg/kg.
Setting [5] is: SI-B001 16 mg/kg/wk i.v. QW, 16 mg/kg.
[6] abbreviates: SI-B001 28 mg/kg/wk i.v. QW, 28 mg/kg.
Setting [7] is: all dose groups of the treatment.

Values joined by “and” are separate entries in the source; they are usually repeats but may differ in a detail not shown here. Identical values can stand only once. Like-named read-outs stand apart in the source and are kept apart here.

In general, T/C refers to the result in the treated group divided by that in the control group, in per cent. With “SI-B001: bispecific tetravalent anti-EGFR/HER3 monoclonal antibody (SEQ ID NO: 1-5)”, the T/C in data set [1] (SI-B001 9 mg/kg/wk i.v. QW) stood at 89.2%; in data set [1] (SI-B001 16 mg/kg/wk i.v. QW) it was 76.9%; in data set [1] (SI-B001 28 mg/kg/wk i.v. QW), 26.9%; in data set [3] (SI-B001 9 mg/kg/wk i.v. QW) it was 110.7%; in data set [3] (SI-B001 16 mg/kg/wk i.v. QW), 75.4%; in data set [3] (SI-B001 28 mg/kg/wk i.v. QW), 26.8%. Also, the TGI in data set [1] (setting [4]) was determined as 10.8%; in data set [1] (setting [5]) it was 23.1%; in data set [1] (setting [6]), 73.1%; in data set [2] (SI-B001 single agent 6 mg/kg i.v. QW), 96.76%; in data set [2] (SI-B001 single agent 9 mg/kg i.v. QW), 97.9%; in data set [2] (SI-B001 single agent 12 mg/kg i.v. QW) it was 98.8%. The TGI in data set [3] (setting [4]) was −10.71% and −10.7%; in data set [3] (setting [5]), 24.64% and 24.6%; in data set [3] (setting [6]), 73.2%. The “Tumor volume x ± SD” value in data set [1] (setting [4]) was 682 mm^3 and 682.7 ± 174.7 mm^3; in data set [1] (setting [5]), 588.1 mm^3 and 588.1 ± 101.7 mm^3; in data set [1] (setting [6]) it was 205.7 mm^3 and 205.7 ± 76.1 mm^3; in data set [3] (setting [4]), 789.65 mm^3 and 789.7 ± 140.7 mm^3; in data set [3] (setting [5]), 601.42 mm^3 and 601.4 ± 112.9 mm^3; in data set [3] (setting [6]), 203.92 mm^3 and 203.9 ± 91.3 mm^3. Moreover, the “mice died before D24” value in data set [1] (SI-B001 single-agent high dose group #5 (28 mg/kg)) amounted to 2; in data set [1] (SI-B001 single-agent low dose group #3 (9 mg/kg)) it was 1; in data set [1] (SI-B001 single-agent middle dose group #4 (16 mg/kg)), 2. The “body weight / weight loss” value in data set [2] (setting [7]) is given as “no significant weight loss”. Besides, the “toxicity / safety assessment” value in data set [2] (setting [7]) was “low toxicity and good safety”. Also, in data set [2] (all dose groups of the treatment, 5 mice per group), the “death of mice before the end of the experiment” value was “no death”. Also, the results for the “mice died before D31” value in data set [3] (SI-B001 single-agent high dose (28 mg/kg)), in data set [3] (SI-B001 single-agent low dose (9 mg/kg)) and in data set [3] (SI-B001 single-agent middle dose (16 mg/kg)) were 3, 1 and 3, respectively.

As for “Cetuximab: monoclonal antibody targeting the extracellular domain of EGFR”, in data set [2] (Cetuximab 10.5 mg/kg on day 0 then three doses of 6.5 mg/kg weekly, i.v.), the TGI was 74.27%.
